# AlphaSeq binding of Ab-14 light chain variants to a spike HR2 peptide

Target: peptide PDVDLGDISGINAS, taken from heptad repeat 2 (HR2) of SARS-CoV-2 spike.

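These sequences belong to a second round, designed from the earlier measurements on random variants of the parent. Their group label is 14L_En_HC (En: ensemble of fine-tuned language models; HC: hill climbing; a sequence that several methods proposed may carry one label only). In AlphaSeq, yeast of one mating type display the scFv and yeast of the other type display the target. Binding brings cells together so that they mate, and sequencing counts the barcode pairs among the diploids. Read counts were normalised to the haploid input and turned into Kd by a linear fit to BCL2-family pairs of known affinity, for each replicate. There are six technical replicates.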

Parent: Ab-14, a human scFv built as VH, three GGGGS repeats, VL. Only the CDRs of the light chain vary.
VH: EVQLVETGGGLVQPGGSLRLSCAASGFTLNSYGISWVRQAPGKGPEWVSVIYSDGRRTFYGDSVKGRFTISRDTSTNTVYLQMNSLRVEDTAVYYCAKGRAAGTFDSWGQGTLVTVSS
VL: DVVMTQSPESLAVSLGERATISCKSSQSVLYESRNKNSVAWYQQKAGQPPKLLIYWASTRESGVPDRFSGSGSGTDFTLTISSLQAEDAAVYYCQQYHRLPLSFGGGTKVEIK

The parent's light chain CDRs are KSSQSVLYESRNKNSVA, WASTRES, QQYHRLPLS; each variant's own CDRs replace them letter for letter. Affinities are written as log10 Kd with Kd in nM; a lower number is a better binder. A mean of the replicates is given; it leaves out those without a signal. A pair that was not seen in that replicate is written "nd"; this usually means weak binding, but a binder can also be missed. The parent sequence was in this pool as ten entries: three were never detected, three once, and four in most replicates, with averages from 0.34 to 2.37.

CDR-L1	CDR-L2	CDR-L3	replicates, log10 nM	log10 Kd (nM), mean	control signals
HISMMVGTKGYVKNSVA	NAETRED	QQYHRLPLS	0.22 0.13 0.13 -0.08 0.09 0.41	0.15	1 of 18 (2.90)
KISFNTLIESKNLNSVA	EMTTREY	QDYDRLPLS	nd 1.10 0.83 nd 0.71 1.82	1.11	0 of 18
KLGQSVAMTSRMKNNVA	DLNERER	QQYDRLPLS	nd nd nd nd 0.38 nd	0.38	0 of 18
TLTQVTMVESYNKNSVA	QASTREE	QDYHRLPLS	0.41 0.15 0.21 0.06 0.18 0.48	0.25	0 of 18
KLSISHQVEHINKSNVA	EMVTRES	QQYDRLPLS	nd nd 1.88 2.30 3.18 nd	2.45	2 of 18 (2.96)
HISMSMNWLSRNKDSIA	EESTRED	QQYHRLPLS	0.09 0.14 0.34 -0.42 0.05 0.04	0.04	0 of 18
HITPSFMVESRLKNSVA	QTSTRES	QQYDRLPLS	0.67 0.36 0.42 0.27 0.39 0.43	0.42	2 of 18 (3.19)
HLTDTVMQGSYYRNSVA	QESTRAD	QQYHRLPLS	0.33 0.14 -0.02 0.11 0.50 0.58	0.27	0 of 18
KLSQVTHSEHKVKNSIA	EMVTREK	QQYDRLPLS	0.69 0.45 0.46 0.61 0.73 0.77	0.62	2 of 18 (3.35)
IITQSVMSESRNKRNVA	NTSEREP	QQYDRLPLI	0.95 0.91 0.55 0.82 0.65 0.95	0.81	5 of 18 (3.20)
TISSSMLYLSNLKNSVA	QAETRES	QQYHRLPIS	0.85 1.54 1.81 1.60 0.72 1.18	1.28	0 of 18
TISGLIMMPSRNANSVA	NTSTRYS	QQYHRLPLS	0.84 0.05 0.45 -0.08 0.88 0.33	0.41	0 of 18
ILYESVGTLSRNKHSVA	DNSTRES	QQYDRLPLS	1.61 1.43 1.62 0.85 1.64 1.21	1.39	0 of 18
HLSDTTMQGSYYRNSVA	QESTRAD	QQYHRLPLS	0.60 0.51 0.83 0.64 0.36 0.67	0.60	1 of 18 (2.64)
HLSDTVMQGMYYRNSVA	QESTRAD	QQYHHLPLS	0.91 0.61 0.33 0.41 0.98 0.87	0.68	0 of 18
MFSQSVMLGSFYRNSVA	QTSTRES	QQYDRLPLS	0.74 1.33 1.00 1.21 1.03 1.18	1.08	1 of 18 (2.32)
KLSQFYRMETRNKNSVA	DNSTRES	QDYDRLPLS	nd nd 4.30 nd nd nd	4.30	2 of 18 (2.72)
TMPQVWMYESKNKNNVA	EQSTRED	QQYFRLPLS	-0.56 -0.58 -0.37 -0.68 -0.63 -0.17	-0.50	0 of 18
KISGLYNFAQTNKNSIA	EMTTRES	QHYHRLPLS	0.70 0.48 0.19 0.29 0.53 0.77	0.49	0 of 18
KISFQYRYEQLSKNSIA	EVQTRLK	QQYHRLPLS	1.13 1.09 1.51 0.66 1.23 1.31	1.15	1 of 18 (2.86)
MISDLTMYGSRNKNSIA	DSSTRGS	QQYHRLPLS	-0.44 -0.34 -0.64 -0.48 -0.20 -0.37	-0.41	0 of 18
TISQMHFIESKNRNNVA	EMTTREN	QDYDRLPLS	1.13 1.00 0.85 0.87 1.18 1.57	1.10	2 of 18 (2.99)
IIYESVGTLSRNTNSVA	DNSTREK	QQYDRLPLS	nd 3.28 2.41 3.11 nd 2.79	2.90	1 of 18 (3.11)
TLTQVTMVESYGKNSVA	QASTRLE	QDYHRLPLS	1.13 1.05 0.80 0.76 0.89 0.92	0.92	1 of 18 (2.15)
MISTLTMYGSRNKNSVA	DLSTRGS	QQYHRLPLS	0.55 0.26 0.05 -0.22 -0.05 0.47	0.18	0 of 18
MFSQLFMYGSRNYNSVA	QASTREQ	QQYHRLPLI	1.73 nd nd nd nd nd	1.73	0 of 18
MISDLTMSGSRNKNSVA	DLSTRGS	QQYHRLPLS	0.11 0.06 0.06 -0.08 -0.08 0.22	0.05	2 of 18 (2.71)
NISQMFLMETKHVNNVA	QTSTRES	QDYHRLPLS	0.70 0.63 0.60 0.50 0.87 1.26	0.76	1 of 18 (4.64)
KLGDMVHTLSRNKNSIA	DMRTRES	QQYHRLPLS	0.13 -0.07 -0.29 -0.42 -0.24 -0.05	-0.16	2 of 18 (3.14)
MLSDLVRMGVRNTNSVA	DNSTRGS	QQYDRLPLS	nd nd 2.31 2.66 2.26 nd	2.41	0 of 18
ALSQSMDMTSRNKNSVA	DLTTREN	QQYHRLPLS	-0.36 -0.11 -0.21 -0.45 -0.81 -0.08	-0.34	1 of 18 (1.69)
SITQLVAYGNRNKSSVA	QMSTRES	QQYDRLPLS	1.89 1.96 1.53 1.06 1.34 2.08	1.65	1 of 18 (2.69)
KISYMGEYFSTNHSAIA	QASTRLQ	QQYHRLPIS	1.22 0.04 0.92 1.39 1.57 0.57	0.95	0 of 18
IFSQSVLMGNLTKSSVA	QASTRFS	QQYHRLPLI	0.95 0.89 0.70 1.08 1.18 2.07	1.15	0 of 18
IISGIMLMESRNKNSVA	NAETREY	QHYDRLPLS	nd nd nd 2.56 nd nd	2.56	2 of 18 (1.78)
MISDLTMYGSRNKNSVA	DLSTRGY	QQYHRLPLS	0.19 0.34 -0.07 0.04 0.02 0.41	0.15	0 of 18
MIAESVGYQSRQKNSVA	DNSTRES	QCYDRLPLS	nd 1.18 nd nd 1.53 nd	1.35	0 of 18
KLSQAVNVTGKNSNSVA	ELSFREK	QQYDRLPLS	0.60 1.34 1.34 1.06 1.72 1.17	1.21	1 of 18 (2.87)
MISDLMLYGSRQKNPIA	NASTREY	QQYHRLPLE	1.02 1.21 1.28 1.25 0.85 0.67	1.05	1 of 18 (1.63)
KIGHGLTTESRNKNSVA	QTETRES	QHYHRLPLS	nd nd nd 2.61 nd 3.18	2.89	2 of 18 (2.05)
ILYDSVLTLGRNKNSVA	DNSTRES	QQYDRLPLS	nd nd nd nd nd nd	nd	0 of 18
KLSQYVGGESRNKSSLA	DNSTREN	QQYERLPLS	1.99 2.68 2.11 1.83 2.45 3.03	2.35	2 of 18 (2.70)
MFSQLVYTGSRTRNAVA	QASTREN	QQYHRLPLS	3.38 1.04 0.90 1.14 0.79 1.59	1.47	0 of 18
MISQLFMYGSRNYNSVA	QATTRES	QQYDRLPLI	1.51 1.20 0.68 0.97 1.43 1.06	1.14	0 of 18
ILSQMMLTAGNKHNSVA	QANYRES	QQYHRLPLS	2.33 1.41 2.22 1.45 1.31 1.68	1.73	0 of 18
KLLQVTENMQLNRNNVA	HMSTRED	QQYHRLPLS	0.16 0.11 0.06 0.63 0.88 0.80	0.44	0 of 18
KISMYLNKESKAGNNVA	EMVNRES	QQYDRLPLS	0.81 0.47 0.49 0.67 0.68 0.61	0.62	0 of 18
TISQMFLGESRNRNSVA	QASTREE	QSYDRLPLS	0.87 0.83 0.72 0.47 1.12 1.06	0.84	0 of 18
MISDLTQYGSRNKNSVA	DLSTRGS	QQYHRLPLS	0.16 0.12 0.30 -0.11 0.34 0.24	0.18	0 of 18
KISMSYRYEQQEKNSIA	EMTTREE	QSYHRLPLS	0.55 0.01 0.14 0.34 0.64 0.91	0.43	0 of 18
KISGMYQKESKNKNSIA	EMVNRES	QQYDRLPLS	0.81 0.37 0.64 0.20 0.49 0.47	0.50	2 of 18 (2.75)
IFSQSVMMGNMTRNSVA	QAQERFN	QQYDRLPLI	1.11 1.65 1.60 1.77 1.69 1.64	1.58	1 of 18 (2.42)

The opening 8 entries, copied out:

CDR-L1	CDR-L2	CDR-L3	replicates, log10 nM	log10 Kd (nM), mean	control signals
HISMMVGTKGYVKNSVA	NAETRED	QQYHRLPLS	0.22 0.13 0.13 -0.08 0.09 0.41	0.15	1 of 18 (2.90)
KISFNTLIESKNLNSVA	EMTTREY	QDYDRLPLS	nd 1.10 0.83 nd 0.71 1.82	1.11	0 of 18
KLGQSVAMTSRMKNNVA	DLNERER	QQYDRLPLS	nd nd nd nd 0.38 nd	0.38	0 of 18
TLTQVTMVESYNKNSVA	QASTREE	QDYHRLPLS	0.41 0.15 0.21 0.06 0.18 0.48	0.25	0 of 18
KLSISHQVEHINKSNVA	EMVTRES	QQYDRLPLS	nd nd 1.88 2.30 3.18 nd	2.45	2 of 18 (2.96)
HISMSMNWLSRNKDSIA	EESTRED	QQYHRLPLS	0.09 0.14 0.34 -0.42 0.05 0.04	0.04	0 of 18
HITPSFMVESRLKNSVA	QTSTRES	QQYDRLPLS	0.67 0.36 0.42 0.27 0.39 0.43	0.42	2 of 18 (3.19)
HLTDTVMQGSYYRNSVA	QESTRAD	QQYHRLPLS	0.33 0.14 -0.02 0.11 0.50 0.58	0.27	0 of 18

The authors' rule: three or more of the six replicates give a measured affinity, fewer mean a poor binder. Three control strains display no target. For all light chain designs, 4% of the pairings with them gave a signal, with a median of 2.64 and one signal in twenty below 1.59, so weak values seen in few replicates may be background. Also given: how often the same scFv was detected with the empty control strains, with their mean in brackets. A sequence measured in both rounds can read differently, since the two assays cover different ranges.

Values reported by Li et al. 2023, doi:10.1038/s41467-023-39022-2 (FLAb copy).